Binding of CDR-mutated scFvs to a peptide of the spike HR2 region

Source: Engelhart et al. 2022 (doi:10.1038/s41597-022-01779-4), MIT Lincoln Laboratory and A-Alpha Bio; data file from the FLAb repository.

Target: peptide PDVDLGDISGINAS, taken from heptad repeat 2 (HR2) of SARS-CoV-2 spike.

Parent scFv Ab-14: VH joined to VL by a 15-residue (Gly4Ser)3 linker. Changes lie in the light chain CDRs alone.
VH: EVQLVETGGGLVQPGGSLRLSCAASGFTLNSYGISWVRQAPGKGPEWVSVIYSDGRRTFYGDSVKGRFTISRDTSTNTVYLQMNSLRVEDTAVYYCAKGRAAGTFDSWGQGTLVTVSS
VL: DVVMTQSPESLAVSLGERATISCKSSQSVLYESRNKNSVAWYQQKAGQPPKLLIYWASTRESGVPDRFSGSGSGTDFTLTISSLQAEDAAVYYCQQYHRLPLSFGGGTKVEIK

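The parent was found by panning a naive human phage display library on the peptide. The library (AAYL50) carries one to three amino acid substitutions per variant, with no insertions or deletions. Affinity was read by AlphaSeq, a pooled yeast mating assay with surface-displayed partners. Pairs that bind mate more often; barcode pairs of the diploids are counted by sequencing. Each replicate has its own calibration line, from reference interactions of the BCL2 family. Each pool was mated in three replicate cultures.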

The parent's light chain CDRs are KSSQSVLYESRNKNSVA, WASTRES, QQYHRLPLS; each variant's own CDRs replace them letter for letter.
All variants listed here change S26 of the VL, counted from its first residue.
Each Kd is an estimate from the mating assay, the geometric mean of the replicates in which the pair was seen; lower is stronger.
A pair that was not seen in any replicate is written "nd"; this usually means weak binding, but a binder can also be missed.

- KSQTSVLYESRNKNSVA, WASTREI, QQYHRLPLS = 6.4 nM (3 of 3 replicates; controls 0 of 9)
- KSPESVLMESRNKNSVA, WASTRES, QQYHRLPLS = 3.3 nM (3 of 3 replicates; controls 2 of 9)
- KSDQSVLYESRNKNSVA, WASTRES, QQYHRLPLS = 160 nM (3 of 3 replicates; controls 3 of 9)
- KSAQSVLYESRNKNSVA, WASTRED, QWYHRLPLS = nd (0 of 3 replicates; controls 1 of 9)
- KSLQSVLYEQRNKNSVA, WASTRES, QNYHRLPLS = 9.9 µM (1 of 3 replicates; controls 1 of 9)
- KSQQSDLYMSRNKNSVA, WASTRES, QQYHRLPLS = 1.7 nM (3 of 3 replicates; controls 3 of 9)
- ESIFSVLYESRNKNSVA, WASTRES, QQYHRLPLS = 2.1 µM (2 of 3 replicates; controls 1 of 9)
- KSTQSVLYESRNKNSVA, WARTRES, QQYHRLPLG = 2.5 µM (3 of 3 replicates; controls 1 of 9)
- KSDQSTLYESRNKNSVA, WASTRES, QQYHRLPLS = 15 nM (3 of 3 replicates; controls 3 of 9)
- KSRQSVLYESRMKNRVA, WASTRES, QQYHRLPLS = 2.6 µM (1 of 3 replicates; controls 0 of 9)
- KSDQVVLYESRNKNCVA, WASTRES, QQYHRLPLS = 1.2 µM (3 of 3 replicates; controls 3 of 9)
- KSNQSVLYESRNKNFVA, WAITRES, QQYHRLPLS = nd (0 of 3 replicates; controls 2 of 9)
- KSQQSVNYVSRNKNSVA, WASTRES, QQYHRLPLS = 16 nM (3 of 3 replicates; controls 1 of 9)
- KSFYSVLYESRNKNSVA, WASTRES, QQYKRLPLS = 58 nM (3 of 3 replicates; controls 0 of 9)
- KSGQSVLYESRNKNSVA, WQSTRES, QQYHPLPLS = 770 nM (3 of 3 replicates; controls 1 of 9)
- KADQSVTYESRNKNSVA, WASTRES, QQYHRLPLS = 4.0 nM (3 of 3 replicates; controls 1 of 9)
- VSAQSVLYESRNKNSVA, WASTRTS, QQYHRLPLS = 430 nM (3 of 3 replicates; controls 0 of 9)
- KSLQSVLYESRNKNSVA, WASTWES, QQYMRLPLS = nd (0 of 3 replicates; controls 0 of 9)
- KSLQSTLYASRNKNSVA, WASTRES, QQYHRLPLS = 32 nM (3 of 3 replicates; controls 0 of 9)
- KSVQSVLYESRNKNSVA, WASTRES, QQYHRLPAH = 2.2 µM (1 of 3 replicates; controls 1 of 9)
- KSAQSVLYESRNKNSVN, WWSTRES, QQYHRLPLS = nd (0 of 3 replicates; controls 1 of 9)
- KSMQSVDYESRNKNSVA, WAFTRES, QQYHRLPLS = 13 nM (3 of 3 replicates; controls 2 of 9)
- GSLQSVLYESRNKNSVA, WASGRES, QQYHRLPLS = 62 µM (1 of 3 replicates; controls 4 of 9)
- KSNQSVLFESRNKNSVA, WASTRGS, QQYHRLPLS = 320 nM (3 of 3 replicates; controls 3 of 9)
- KSLQSVLYESRNKNSVA, WASTRES, QQYHRLPLS = 11 nM (3 of 3 replicates; controls 3 of 9)
- KSTQSVLYESRNCNSVA, WASTRES, QQYHRVPLS = nd (0 of 3 replicates; controls 4 of 9)
- KSCQSVLYESRNKNSVA, WASTKEM, QQYHRLPLS = 3.7 µM (3 of 3 replicates; controls 3 of 9)
- KSVQSQLYESRNKNSVA, WASTGES, QQYHRLPLS = nd (0 of 3 replicates; controls 4 of 9)
- CSKQSVLYESRNKNSVA, WASTRES, QQYHRLPLS = 420 nM (3 of 3 replicates; controls 2 of 9)
- KSIQSVLYESRNKNSVA, PASTRES, QQYARLPLS = nd (0 of 3 replicates; controls 0 of 9)
- YSHQSVLYESRNKNYVA, WASTRES, QQYHRLPLS = nd (0 of 3 replicates; controls 0 of 9)
- KSGQSVLYESRNKNSVA, WASNRGS, QQYHRLPLS = 2.7 µM (2 of 3 replicates; controls 2 of 9)

The closing 2 entries, repeated:

- YSHQSVLYESRNKNYVA, WASTRES, QQYHRLPLS -> nd (0 of 3 replicates; controls 0 of 9)
- KSGQSVLYESRNKNSVA, WASNRGS, QQYHRLPLS -> 2.7 µM (2 of 3 replicates; controls 2 of 9)

Background: pairings of library AAYL50 with three empty control strains gave a value in 18% of cases (median 15 µM, 5th percentile 970 nM). Values in that range, when seen in few replicates, are hard to tell from nonspecific mating. Also given: how often the same scFv was detected with the empty control strains.